# Assay results reported in US12097200B2, “Combination of BI853520 with chemotherapeutic drugs” (INXMED (NANJING) CO., LTD., priority 2020, dated 2024).
# Where “and” joins values, the source holds several entries; their conditions need not be identical. Identical values can stand only once.
# Tested on: KYSE-70 cells
# Settings: KYSE-70 xenograft; BI 853520 50 mg/kg qd; docetaxel 10 mg/kg q7d; combination of both
compound,measurement,value
"CC(=O)O[C@@]12CO[C@@H]1C[C@H](O)[C@@]1(C)C(=O)[C@H](O)C3=C(C)[C@@H](OC(=O)[C@H](O)[C@@H](NC(=O)OC(C)(C)C)c4ccccc4)C[C@@](O)([C@@H](OC(=O)c4ccccc4)[C@H]21)C3(C)C [Docetaxel, reference compound]",Tumor regression (animals with regression/animals in group),4 of 7 and 4/7
